Results reported in patent US8765729B2, “Cancer therapy” (Aeolus Sciences, Inc., priority 2001, dated 2014).

Tested on: mice
Conditions: two highest doses (153 and 268 mg/kg ip), 48 hours

O=C(O)c1ccc(-c2c3nc(c(-c4ccc(C(=O)O)cc4)c4ccc([n-]4)c(-c4ccc(C(=O)O)cc4)c4nc(c(-c5ccc(C(=O)O)cc5)c5ccc2[n-]5)C=C4)C=C3)cc1.[Mn+3] [MnTBAP, manganese (III) tetrakis (4-benzoic acid) porphyrin]
lethality: lethal
